System: NCC (lysis of IM-9 target cells)
Conditions: 20 mM, 120 minutes, E:T 50:1
Experimental: FIG. 4. Individual and combined effects of phosphatase inhibitors on NCC cytotoxicity, NCC (7×10^5 cells) were incubated with either media (.diamond.), vanadate (Δ) (5 mM). NaF (.smallcircle.) (20 mM), or both vanadate and NaF (.quadrature.) for the indicated time periods before addition to labeled IM-9 target cells.
FIG. 5. Effects of removal of Na3 VO4 on NCC activation. NCC were harvested, incubated for three hours, washed, counted and added to duplicate tubes containing either media alone or media containing 2.5, 5 and 10 mM vanadate. […]
FIG. 6. […] NCC were harvested, incubated for three hours in media, washed, counted and added to duplicate tubes containing media alone or in the presence of 5, 10 and 20 mM NaF. […]
FIG. 7. […] The cells were incubated in media for three hours, washed, counted and added to test tubes containing either media alone or media with 2.5, 5 and 10 mM vanadate. […]
FIG. 8. […] The cells were incubated in media for three hours, washed, counted and added to media or media with 5, 10 and 20 mM NaF. […]
A ^51 Cr release assay was used to determine cytotoxicity. […] This mixture was incubated (25° C.) for 4-6 hours and 100 μl of each supernatant was removed to determine radioactivity (Beckman Biogamma II Counter; Beckman Instruments, Irvine, Calif.). […]

[F-].[Na+] [Sodium fluoride, sodium fluoride]
Percentage of control (NCC cytotoxic activity): 225.8%

Source: patent US5593678A, “Protection of teleost fish” (University of Georgia Research Foundation, priority 1994, dated 1997)
